What was measured:
[1] = tested on: CLL cells; test: Cytotoxicity of NOS inhibitors and NO quenchers/scavengers for freshly-isolated CLL cells in vitro; format: cell-based, human; details: Table 2, CLL cytotoxicity
[2] = target: pure human enzyme NOS2 (Homo sapiens, UniProt P35228); test: Kd for enzyme inhibition, pure human NOS2; format: biochemical

CC(=N)NCc1cccc(CN)c1 [1400W, N-(3-(aminomethyl)benzyl)acetamidine]
ED50 for CLL [1]: >2000 µM

Cc1cccc(N)n1 [2-amino-6-methyl pyridine]
Kd [2]: 0.26 µM

From US20050234026A1, “Method and agent for inducing apoptosis/cell death in leukemia cells” (priority 2003, published 2005)
